Among the data in publication PMC3070799 (Neuropharmacology, 2011) are IC50 values, retold here.

Chains of the proteins cited; added tags and fusions are not shown. Residues count along the entry.
UniProt O95264, 22-441: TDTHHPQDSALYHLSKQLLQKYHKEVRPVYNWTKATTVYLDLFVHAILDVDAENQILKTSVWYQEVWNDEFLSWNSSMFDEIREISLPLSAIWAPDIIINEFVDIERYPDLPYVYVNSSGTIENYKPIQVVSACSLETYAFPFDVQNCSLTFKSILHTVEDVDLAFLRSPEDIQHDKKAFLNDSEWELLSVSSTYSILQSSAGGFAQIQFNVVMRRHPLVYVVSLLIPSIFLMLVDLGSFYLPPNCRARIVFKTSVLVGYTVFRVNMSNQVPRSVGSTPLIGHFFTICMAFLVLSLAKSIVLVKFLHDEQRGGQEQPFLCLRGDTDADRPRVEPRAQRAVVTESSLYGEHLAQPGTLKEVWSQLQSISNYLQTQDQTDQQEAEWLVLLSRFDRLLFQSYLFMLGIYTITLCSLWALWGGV
UniProt P46098, 24-478: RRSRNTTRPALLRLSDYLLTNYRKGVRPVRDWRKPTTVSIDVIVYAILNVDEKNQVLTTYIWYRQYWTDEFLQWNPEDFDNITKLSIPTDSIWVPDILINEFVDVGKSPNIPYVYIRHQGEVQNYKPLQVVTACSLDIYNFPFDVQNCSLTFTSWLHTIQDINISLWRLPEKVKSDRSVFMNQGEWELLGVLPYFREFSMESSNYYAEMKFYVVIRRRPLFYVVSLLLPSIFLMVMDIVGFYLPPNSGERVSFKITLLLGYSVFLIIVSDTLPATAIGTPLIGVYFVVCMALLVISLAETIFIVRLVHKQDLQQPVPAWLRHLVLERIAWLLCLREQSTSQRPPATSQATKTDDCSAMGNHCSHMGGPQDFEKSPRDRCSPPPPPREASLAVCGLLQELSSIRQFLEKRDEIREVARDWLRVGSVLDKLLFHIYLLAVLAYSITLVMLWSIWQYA

The target of one experiment is T1, human 5-HT3AB receptors (Homo sapiens, UniProt O95264+P46098).
T1 construct: expressed in transfected cells; host or cells: Xenopus laevis oocytes (cRNA from pGEMHE)
The experiment in a line: Two-electrode voltage clamp of 5-HT-induced currents in Xenopus oocytes. The class given is cell-based. The note with it: inhibition of 5-HT EC50 response (28 μM 5-HT). The procedure: (§1) Stage V and VI oocytes were injected with 50 nl of ∼300 ng μl^−1 cRNA, and currents were recorded 1–4 days post-injection. A ratio of 1:3 (A:B) was used for the expression of heteromeric 5-HT3 receptors.
(§2) Xenopus laevis oocyte positive females were purchased from NASCO (Fort Atkinson, Wisconsin, USA) and maintained according to standard methods.
Currents were filtered at a frequency of 1 kHz. Micro-electrodes were fabricated from borosilicate glass (GC120TF-10, Harvard Apparatus, Edenbridge, Kent, UK) using a two stage horizontal pull (P-87, Sutter Instrument Company, California, USA) and filled with 3 M KCl. […] Oocytes were perfused with saline at a rate of 15 ml min^−1. Drug application was via a simple gravity fed system calibrated to run at the same rate. Extracellular saline contained (mM), 96 NaCl, 2 KCl, 1 MgCl2 and 5 mM HEPES; adjusted to pH 7.4 with NaOH.
Analysis and curve fitting was performed using Prism V3.02 (GraphPad Software, San Diego, California, USA, www.graphpad.com). Concentration-response data for each oocyte was normalised to the maximum current for that oocyte. For inhibition curves, antagonists were routinely co-applied in the presence of agonist. For PXN, oocytes were also pre-treated with the compound for 20 s. A 2 min wash was used between drug applications. […]

The target of another experiment is T2, human 5-HT3A receptors (Homo sapiens, UniProt P46098).
T2 construct: expressed in transfected cells; host or cells: Xenopus laevis oocytes (cRNA from pGEMHE)
Kind of experiment: Two-electrode voltage clamp of 5-HT-induced currents in Xenopus oocytes, incl. co-application. The note with it: inhibition of 5-HT EC50 response (1.7 μM 5-HT). The class given is cell-based. The procedure:
as §1, §2
Currents were filtered at a frequency of 1 kHz. Micro-electrodes were fabricated from borosilicate glass (GC120TF-10, Harvard Apparatus, Edenbridge, Kent, UK) using a two stage horizontal pull (P-87, Sutter Instrument Company, California, USA) and filled with 3 M KCl. […] Oocytes were perfused with saline at a rate of 15 ml min^−1. Drug application was via a simple gravity fed system calibrated to run at the same rate. Extracellular saline contained (mM), 96 NaCl, 2 KCl, 1 MgCl2 and 5 mM HEPES; adjusted to pH 7.4 with NaOH. […]
97) • Scenario 1: Where compounds share a binding site it was assumed that the extent of binding would be determined by a competitive interaction between the compounds such that the proportion of binding sites occupied (Pocc) in the presence of two competing compounds is given by the following expression: (2) Pocc=AKA+BKB/1+AKA+BKB where A and B are the concentrations of two ligands and KA and KB are their affinity constants respectively. […]
For orientation: Two-electrode voltage clamp is typically applied to oocytes expressing channels or transporters.

A word on the IC50: it is the midpoint of a concentration-inhibition curve. Turning to ginkgolide B [GB], the IC50 against human 5-HT3AB receptors worked out at 3900 µM; at human 5-HT3A receptors, 730 µM.
